Target: TLN1 PTB (Homo sapiens, UniProt Q9Y490)
Assay type: binding

The chains behind the UniProt entries cited, without tags or fusion partners. Residues count along the entry.
UniProt Q9Y490, 309-401: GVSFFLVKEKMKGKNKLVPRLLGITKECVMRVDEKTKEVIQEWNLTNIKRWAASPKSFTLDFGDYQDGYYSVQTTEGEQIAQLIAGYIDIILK

| Sequence | DMS-derived PSSM value of the single-substitution variant |
| --- | --- |
| FPTDERSWVYSPLHYS P2N (FNTDERSWVYSPLHYS) | 0.0467 |
| FPTDERSWVYSPLHYS P2P | 0.03327 |
| FPTDERSWVYSPLHYS P2Q (FQTDERSWVYSPLHYS) | 0.02038 |
| FPTDERSWVYSPLHYS P2R (FRTDERSWVYSPLHYS) | 0.01393 |
| FPTDERSWVYSPLHYS P2S (FSTDERSWVYSPLHYS) | 0.07182 |
| FPTDERSWVYSPLHYS P2T (FTTDERSWVYSPLHYS) | 0.04429 |
| FPTDERSWVYSPLHYS P2V (FVTDERSWVYSPLHYS) | 0.1455 |
| FPTDERSWVYSPLHYS P2W (FWTDERSWVYSPLHYS) | 0.02832 |
| FPTDERSWVYSPLHYS P2Y (FYTDERSWVYSPLHYS) | 0.01746 |
| FPTDERSWVYSPLHYS P12A (FPTDERSWVYSALHYS) | 0.1318 |
| FPTDERSWVYSPLHYS P12D (FPTDERSWVYSDLHYS) | 0.005137 |
| FPTDERSWVYSPLHYS P12E (FPTDERSWVYSELHYS) | 0.02709 |
| FPTDERSWVYSPLHYS P12F (FPTDERSWVYSFLHYS) | 0.01515 |
| FPTDERSWVYSPLHYS P12G (FPTDERSWVYSGLHYS) | 0.1798 |
| FPTDERSWVYSPLHYS P12H (FPTDERSWVYSHLHYS) | 0.01208 |
| FPTDERSWVYSPLHYS P12I (FPTDERSWVYSILHYS) | 0.06286 |
| FPTDERSWVYSPLHYS P12K (FPTDERSWVYSKLHYS) | 0.01148 |
| FPTDERSWVYSPLHYS P12L (FPTDERSWVYSLLHYS) | 0.1462 |
| FPTDERSWVYSPLHYS P12M (FPTDERSWVYSMLHYS) | 0.01521 |
| FPTDERSWVYSPLHYS P12N (FPTDERSWVYSNLHYS) | 0.03853 |
| FPTDERSWVYSPLHYS P12P | 0.02716 |

| Sequence | DMS-derived PSSM value of the single-substitution variant |
| --- | --- |
| FPTDERSWVYSPLHYS P12Q (FPTDERSWVYSQLHYS) | 0.1471 |
| FPTDERSWVYSPLHYS P12R (FPTDERSWVYSRLHYS) | 0.06553 |
| FPTDERSWVYSPLHYS P12S (FPTDERSWVYSSLHYS) | 0.02523 |
| FPTDERSWVYSPLHYS P12T (FPTDERSWVYSTLHYS) | 0.03724 |
| FPTDERSWVYSPLHYS P12V (FPTDERSWVYSVLHYS) | 0.0194 |
| FPTDERSWVYSPLHYS P12W (FPTDERSWVYSWLHYS) | 0.02228 |
| FPTDERSWVYSPLHYS P12Y (FPTDERSWVYSYLHYS) | 0.0108 |
| FPTDERSWVYSPLHYS R6A (FPTDEASWVYSPLHYS) | 0.2635 |
| FPTDERSWVYSPLHYS R6D (FPTDEDSWVYSPLHYS) | 0.04985 |
| FPTDERSWVYSPLHYS R6E (FPTDEESWVYSPLHYS) | 0 |
| FPTDERSWVYSPLHYS R6F (FPTDEFSWVYSPLHYS) | 0 |
| FPTDERSWVYSPLHYS R6G (FPTDEGSWVYSPLHYS) | 0.00648 |
| FPTDERSWVYSPLHYS R6H (FPTDEHSWVYSPLHYS) | 0.00412 |
| FPTDERSWVYSPLHYS R6I (FPTDEISWVYSPLHYS) | 0.0751 |
| FPTDERSWVYSPLHYS R6K (FPTDEKSWVYSPLHYS) | 0.01009 |
| FPTDERSWVYSPLHYS R6L (FPTDELSWVYSPLHYS) | 0.01712 |
| FPTDERSWVYSPLHYS R6M (FPTDEMSWVYSPLHYS) | 0.01536 |
| FPTDERSWVYSPLHYS R6N (FPTDENSWVYSPLHYS) | 0.009144 |
| FPTDERSWVYSPLHYS R6P (FPTDEPSWVYSPLHYS) | 0.02335 |
| FPTDERSWVYSPLHYS R6Q (FPTDEQSWVYSPLHYS) | 0.0108 |
| FPTDERSWVYSPLHYS R6R | 0.01427 |

| Sequence | DMS-derived PSSM value of the single-substitution variant |
| --- | --- |
| FPTDERSWVYSPLHYS R6S (FPTDESSWVYSPLHYS) | 0.3307 |
| FPTDERSWVYSPLHYS R6T (FPTDETSWVYSPLHYS) | 0.02251 |
| FPTDERSWVYSPLHYS R6V (FPTDEVSWVYSPLHYS) | 0.1078 |
| FPTDERSWVYSPLHYS R6W (FPTDEWSWVYSPLHYS) | 0.02732 |
| FPTDERSWVYSPLHYS R6Y (FPTDEYSWVYSPLHYS) | 0.01255 |
| FPTDERSWVYSPLHYS S7A (FPTDERAWVYSPLHYS) | 0.008837 |
| FPTDERSWVYSPLHYS S7D (FPTDERDWVYSPLHYS) | 0.02138 |
| FPTDERSWVYSPLHYS S7E (FPTDEREWVYSPLHYS) | 0.01776 |
| FPTDERSWVYSPLHYS S7F (FPTDERFWVYSPLHYS) | 0.001838 |
| FPTDERSWVYSPLHYS S7G (FPTDERGWVYSPLHYS) | 0.01644 |
| FPTDERSWVYSPLHYS S7H (FPTDERHWVYSPLHYS) | 0.04425 |
| FPTDERSWVYSPLHYS S7I (FPTDERIWVYSPLHYS) | 0.3729 |
| FPTDERSWVYSPLHYS S7K (FPTDERKWVYSPLHYS) | 0.05583 |
| FPTDERSWVYSPLHYS S7L (FPTDERLWVYSPLHYS) | 0.0338 |
| FPTDERSWVYSPLHYS S7M (FPTDERMWVYSPLHYS) | 0.1439 |
| FPTDERSWVYSPLHYS S7N (FPTDERNWVYSPLHYS) | 0.009808 |
| FPTDERSWVYSPLHYS S7P (FPTDERPWVYSPLHYS) | 0 |
| FPTDERSWVYSPLHYS S7Q (FPTDERQWVYSPLHYS) | 0.002731 |
| FPTDERSWVYSPLHYS S7R (FPTDERRWVYSPLHYS) | 0.1131 |
| FPTDERSWVYSPLHYS S7S | 0.03397 |
| FPTDERSWVYSPLHYS S7T (FPTDERTWVYSPLHYS) | 0.03548 |

| Sequence | DMS-derived PSSM value of the single-substitution variant |
| --- | --- |
| FPTDERSWVYSPLHYS S7V (FPTDERVWVYSPLHYS) | 0.01687 |
| FPTDERSWVYSPLHYS S7W (FPTDERWWVYSPLHYS) | 0.0356 |
| FPTDERSWVYSPLHYS S7Y (FPTDERYWVYSPLHYS) | 0.03547 |
| FPTDERSWVYSPLHYS S11A (FPTDERSWVYAPLHYS) | 0.1933 |
| FPTDERSWVYSPLHYS S11D (FPTDERSWVYDPLHYS) | 0 |
| FPTDERSWVYSPLHYS S11E (FPTDERSWVYEPLHYS) | 0 |
| FPTDERSWVYSPLHYS S11F (FPTDERSWVYFPLHYS) | 0 |
| FPTDERSWVYSPLHYS S11G (FPTDERSWVYGPLHYS) | 0 |
| FPTDERSWVYSPLHYS S11H (FPTDERSWVYHPLHYS) | 0 |
| FPTDERSWVYSPLHYS S11I (FPTDERSWVYIPLHYS) | 0 |
| FPTDERSWVYSPLHYS S11K (FPTDERSWVYKPLHYS) | 0 |
| FPTDERSWVYSPLHYS S11L (FPTDERSWVYLPLHYS) | 0 |
| FPTDERSWVYSPLHYS S11M (FPTDERSWVYMPLHYS) | 0.09281 |
| FPTDERSWVYSPLHYS S11N (FPTDERSWVYNPLHYS) | 0.03654 |
| FPTDERSWVYSPLHYS S11P (FPTDERSWVYPPLHYS) | 0.2041 |
| FPTDERSWVYSPLHYS S11Q (FPTDERSWVYQPLHYS) | 0 |
| FPTDERSWVYSPLHYS S11R (FPTDERSWVYRPLHYS) | 0 |
| FPTDERSWVYSPLHYS S11S | 0.3508 |
| FPTDERSWVYSPLHYS S11T (FPTDERSWVYTPLHYS) | 0.0282 |
| FPTDERSWVYSPLHYS S11V (FPTDERSWVYVPLHYS) | 0.04718 |
| FPTDERSWVYSPLHYS S11W (FPTDERSWVYWPLHYS) | 0.0282 |

— paper PMC12102759 (Protein Science : A Publication of the Protein Society, 2025)
